Test results: ChEMBL document CHEMBL3886566, “Aurora kinase inhibitors and methods of making and using thereof” (2016)

Molecular target: T1, Aurora kinase A (Homo sapiens, UniProt O14965)
T1 sequence (O14965 whole entry): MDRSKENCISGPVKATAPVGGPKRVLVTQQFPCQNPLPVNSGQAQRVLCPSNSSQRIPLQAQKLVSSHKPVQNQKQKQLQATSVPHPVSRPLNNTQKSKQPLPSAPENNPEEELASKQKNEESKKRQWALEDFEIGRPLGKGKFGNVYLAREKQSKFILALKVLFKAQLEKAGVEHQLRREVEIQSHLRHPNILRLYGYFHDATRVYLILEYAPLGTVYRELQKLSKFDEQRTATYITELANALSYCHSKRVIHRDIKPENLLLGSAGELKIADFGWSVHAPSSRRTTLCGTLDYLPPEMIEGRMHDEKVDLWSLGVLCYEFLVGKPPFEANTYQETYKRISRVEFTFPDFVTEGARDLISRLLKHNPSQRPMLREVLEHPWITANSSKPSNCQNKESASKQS

IC50: 14.1 µM
SMILES: FC(F)(F)c1cccc(Nc2ccnc(Nc3ccccc3)n2)c1
